From ChEMBL document CHEMBL3351466 (Bioorg Med Chem Lett, 2014) come the findings set out here.

Amino acid sequences for entries named in this document (tags omitted).
UniProt Q8NER1, whole entry: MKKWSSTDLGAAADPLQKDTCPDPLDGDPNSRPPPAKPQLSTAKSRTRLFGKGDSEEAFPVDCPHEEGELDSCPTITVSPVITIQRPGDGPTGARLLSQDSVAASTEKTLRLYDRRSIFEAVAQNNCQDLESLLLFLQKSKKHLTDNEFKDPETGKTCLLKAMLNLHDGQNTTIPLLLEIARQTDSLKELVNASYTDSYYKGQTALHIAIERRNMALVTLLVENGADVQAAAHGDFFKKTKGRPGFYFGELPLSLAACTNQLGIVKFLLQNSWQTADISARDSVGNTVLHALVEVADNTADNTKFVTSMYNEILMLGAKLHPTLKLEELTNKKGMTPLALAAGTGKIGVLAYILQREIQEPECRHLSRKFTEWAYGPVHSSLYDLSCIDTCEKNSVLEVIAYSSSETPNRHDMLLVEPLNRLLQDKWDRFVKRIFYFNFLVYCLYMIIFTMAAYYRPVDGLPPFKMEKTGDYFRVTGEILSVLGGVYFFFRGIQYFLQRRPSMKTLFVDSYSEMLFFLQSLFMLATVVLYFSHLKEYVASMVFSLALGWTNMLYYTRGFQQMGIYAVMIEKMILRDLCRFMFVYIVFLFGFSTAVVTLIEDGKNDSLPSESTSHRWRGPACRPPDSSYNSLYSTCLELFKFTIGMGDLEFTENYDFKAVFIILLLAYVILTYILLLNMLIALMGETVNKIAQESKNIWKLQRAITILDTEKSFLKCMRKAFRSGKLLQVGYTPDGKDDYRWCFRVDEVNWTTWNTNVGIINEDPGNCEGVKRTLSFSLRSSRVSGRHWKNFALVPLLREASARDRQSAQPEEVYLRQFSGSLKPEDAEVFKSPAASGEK

Broadly, the Ki is the dissociation constant of the complex between target and ligand, obtained from inhibition or displacement.

The target of this experiment is Transient receptor potential cation channel subfamily V member 1 (Homo sapiens, UniProt Q8NER1). The experiment is described as follows: Antagonist activity at human TRPV1 expressed in CHO cells assessed as inhibition of capsaicin-induced increase in intracellular Ca2+ level by FLIPR assay. In kind it is cell-based.

On to `CC(C(=O)NCc1ccc(C(F)(F)F)nc1/C=C/C(C)(C)C)c1ccc(NS(C)(=O)=O)c(F)c1` (stereo unspecified), for which the Ki turned out to be 0.7 nM.
